# Yeast mating assay B: variants of the scFv Ab-14

Target: peptide PDVDLGDISGINAS, taken from heptad repeat 2 (HR2) of SARS-CoV-2 spike.

The variants keep the heavy chain, the linker and the frameworks of Ab-14 (scFv order VH, a (GGGGS)3 linker, VL).
VH: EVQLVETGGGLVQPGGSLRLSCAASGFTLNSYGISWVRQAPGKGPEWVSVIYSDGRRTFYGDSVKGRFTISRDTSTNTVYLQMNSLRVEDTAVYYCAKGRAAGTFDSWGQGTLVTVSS
VL: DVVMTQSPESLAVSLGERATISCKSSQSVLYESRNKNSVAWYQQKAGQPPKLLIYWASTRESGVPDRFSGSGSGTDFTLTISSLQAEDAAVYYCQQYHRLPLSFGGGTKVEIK

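The starting antibody came from a phage panning campaign against this peptide. This is the validation round: designs drawn from the data on random variants, tested in the same kind of assay. Their group label is 14L_En_HC (En: ensemble of fine-tuned language models; HC: hill climbing; a sequence that several methods proposed may carry one label only). The assay is AlphaSeq: two haploid yeast populations carry antibody and antigen on their surface. Mating (16 h, 30 °C) was followed by selection of diploids and sequencing of their barcodes. Each replicate has its own calibration line, from reference interactions of the BCL2 family. Mating was done six times.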

The parent's light chain CDRs are KSSQSVLYESRNKNSVA, WASTRES, QQYHRLPLS; each variant's own CDRs replace them letter for letter. Affinities are written as log10 Kd with Kd in nM; a lower number is a better binder. An entry "nd" has no value in the source: the pair was not observed among the diploids in that replicate. This suggests poor binding but is not conclusive. The authors averaged sequences with at least three values out of six and counted those with two or fewer as poor binders. A sequence measured in both rounds can read differently, since the two assays cover different ranges. Background: pairings of all light chain designs with three empty control strains gave a value in 4% of cases (median 2.64, 5th percentile 1.59). Values in that range, when seen in few replicates, are hard to tell from nonspecific mating. For each scFv, signals with the empty controls are counted beside the result, with their mean in brackets.

CDR-L1,CDR-L2,CDR-L3,log10 Kd (nM) by replicate,signal with controls
KISQMSTIESITHNSVA,QTSTREE,QQYDRLPLS,0.01 0.27 0.83 -0.30 0.06 -0.01,0 of 18
HISPSFMVESKLKNSVA,QTETRVE,QQYDRLPLA,0.36 0.27 0.21 -0.12 0.23 0.54,0 of 18
KISGYLNKESKNKNSVA,EMVNRES,QQYDRLPLS,0.99 1.58 1.11 1.07 1.15 1.29,2 of 18 (2.98)
HISMMVGTKGGAKNSVA,NEETRYD,QQYHRLPLS,0.44 0.09 0.11 0.29 0.39 0.36,0 of 18
KIGGVTNGISFSKNSVA,EQSTREE,QQYDRLPLS,0.73 0.73 1.06 0.55 0.60 0.84,1 of 18 (3.21)
MFSQLFMYGSRNYNSVA,QASTREE,QQYDRLPLI,0.65 0.58 0.81 0.33 0.37 0.27,2 of 18 (2.05)
SLYDATQMESRNKNPIA,DVSTRPS,QQYHRLPLS,-0.21 -0.23 -0.57 -0.31 -0.65 -0.07,0 of 18
KISFNMGETQRNKNSVA,EVSTVPE,QQYWRLPLS,1.30 0.99 1.16 0.80 1.11 1.15,1 of 18 (2.98)
KIYSMTGFQSRNADSIA,DNSTRGR,QQYHRLPLS,1.56 2.37 1.50 2.10 1.56 2.28,1 of 18 (2.84)
TLTQVQGMESHNKNSVA,DLSTRGQ,QQYHRLPLS,0.27 0.49 0.05 0.48 0.27 0.38,0 of 18
MISQSFLIGSRMKNSVA,QTSTRES,QQYDRLPLS,1.74 0.69 0.48 0.55 -0.54 0.33,0 of 18
QLGAVTDMTSKNKNSVA,EQSTREN,QQYHRLPLS,0.07 0.17 -0.20 -0.20 0.04 0.48,0 of 18
KLGSMVLLEHGNMNSIA,QQSTREE,QQYDRLPLS,1.29 1.87 1.10 2.01 nd 1.39,0 of 18
TLVQSVMGSSRTKNSVA,NAETRYD,QHYHRLPLS,0.66 0.38 0.46 0.51 0.54 0.49,1 of 18 (2.45)
KISSLTLYESVNKNNVA,EMSTRPS,QSYHRLPLS,0.69 0.56 0.29 0.24 0.37 0.50,1 of 18 (1.97)
KLYQSVGTLSHNKQSIA,DMERRED,QQYHRLPLS,0.63 0.42 0.38 0.31 0.30 0.54,5 of 18 (3.17)
TLTQSVGMESHNKNSVA,DLSTRGS,QQYHRLPLS,0.26 0.45 0.59 0.07 0.38 0.38,1 of 18 (2.31)
HISQMVMYGSCNKNNVA,QVSLREE,QQYHRLPLS,0.18 -0.09 0.16 0.09 0.07 0.12,2 of 18 (2.52)
KLTMMYQHTSRNKNNIA,ERSTRED,QQYHHLPLS,0.92 0.47 0.79 0.55 0.55 0.91,1 of 18 (2.25)
MISQLFMYGSRNMNSIA,QAETREK,QQYDRLPLE,1.35 2.55 1.94 0.69 1.73 1.50,0 of 18
KLGDMVHTESRNKNSIA,DMRTRES,QQYFRLPLS,-0.32 -0.58 -0.59 -0.59 -0.75 -0.45,2 of 18 (2.37)
ILSQSVLMGMHLKNSVA,QASTRFA,QQYHRLPLM,2.89 1.34 1.23 1.97 1.47 2.06,0 of 18
KLGGVTEYEMRNKNSVA,QMTTREQ,QQYHRLPLS,0.38 0.08 -0.08 -0.14 0.00 0.13,0 of 18
KIGMQVTYESTVNNAIA,QMTTREE,QQYHRLPLS,0.24 0.57 -0.39 0.35 -0.10 0.37,1 of 18 (1.50)
KIGSLTNGEKFQSNSVA,QTSTREE,QQYHRLPLS,0.20 0.07 0.19 0.10 0.29 0.33,1 of 18 (1.97)
TISQSAQTESHNKNSVA,DLNVRGS,QQYDRLPLS,0.37 0.42 0.26 0.28 0.24 0.30,0 of 18
TIGQSVHETSKIKNSVA,HASMRED,QQYDRLPLS,0.72 0.29 0.46 0.64 0.57 0.65,1 of 18 (2.72)
KLGQSTVIESFNKNNVA,EMSTRES,QSYDRLPLS,0.94 1.39 1.72 1.32 1.90 1.43,0 of 18
TITQSAQMESHNKNSVA,DLNVRGN,QQYDRLPLS,nd nd nd nd nd nd,0 of 18
KITQMVTGESHNKNSIA,QMTTREG,QQYHRLPLA,0.58 0.50 0.23 0.72 0.56 0.45,0 of 18
KLSQHVGYESRNKSRVA,DNSTRES,QQYDRLPLS,nd 2.33 nd nd nd nd,1 of 18 (2.57)
KLRESIHVETKQKNNVA,DNSTRES,QDYHRLPLS,2.14 2.59 nd nd nd 2.13,3 of 18 (2.45)
QLLMATMQETYNKNSVA,HAETRED,QSYHRLPLS,1.52 0.91 1.32 0.68 1.39 0.76,0 of 18
TLGQSTLMESRNRNNVA,QMSTREK,QQYDRLPLS,0.83 0.76 0.56 0.30 0.40 0.78,0 of 18
KSSISYLYESRNKNSVA,EASTRES,QQYHRLPLS,0.41 0.36 0.50 0.31 0.35 -0.04,1 of 18 (1.67)
KLPLATMQESVSKNNVA,ELSTRGS,QQYHRLPLS,0.89 1.27 0.56 0.57 1.08 0.84,1 of 18 (2.60)
MFPQEVMYEQHFKNNVA,QTSTREP,QQYDMLPLS,1.08 0.78 1.01 0.55 0.59 1.03,1 of 18 (2.86)
HISMMVGTKGQAKNSVA,NEETRYD,QQYHRLPLS,0.38 -0.08 0.35 -0.10 0.02 0.28,0 of 18
ILSQSVLLGMHTKNNVA,QATMRFN,QQYHRLPFM,0.97 0.24 0.09 0.20 0.01 0.24,2 of 18 (2.30)

The 3 strongest on average among those seen in every replicate, once more:

CDR-L1	CDR-L2	CDR-L3	log10 Kd (nM) by replicate	signal with controls
KLGDMVHTESRNKNSIA	DMRTRES	QQYFRLPLS	-0.32 -0.58 -0.59 -0.59 -0.75 -0.45	2 of 18 (2.37)
SLYDATQMESRNKNPIA	DVSTRPS	QQYHRLPLS	-0.21 -0.23 -0.57 -0.31 -0.65 -0.07	0 of 18
QLGAVTDMTSKNKNSVA	EQSTREN	QQYHRLPLS	0.07 0.17 -0.20 -0.20 0.04 0.48	0 of 18

The measurements come from Li et al. 2023 (doi:10.1038/s41467-023-39022-2) through the FLAb antibody collection.